This assay can be described thus: Bitter tasting threshold was expressed as log 1/T. It counts as functional.

These results are taken from ChEMBL document CHEMBL1128468, “Amino acid side chain descriptors for quantitative structure-activity relationship studies of peptide analogues” (J Med Chem, 1995).

`N[C@@H](Cc1ccccc1)C(=O)N1CCC[C@@H]1C(=O)O` displayed a Log 1/T of 2.7. Then `CC[C@@H](C)[C@H](NC(=O)CN)C(=O)O`, with 1.7. The same measure for `CC(C)C[C@H](NC(=O)[C@@H](N)CC(C)C)C(=O)O`: 2.35; for `CC[C@H](C)[C@H](N)C(=O)N1CCC[C@@H]1C(=O)O`: 2.4. The compound `CC[C@@H](C)[C@H](NC(=O)[C@@H]1CCCN1)C(=O)O` had a Log 1/T of 2.33.
